Experiments:
bacterial plasmid DNA = experiment: Circular dichroism spectroscopy of DNA; conditions: 12 nM DNA, 2.5% IL (160 mM); peaks at 245 and 265 nm
[1] = Conductivity measurements of 160 mM solutions; type: physicochemical
Method: Conductivity was measured using a Thermo Scientific Orion Star […] conductivity meter using a DuraProbe 4-electrode conductivity cell. […] The clean probe was introduced into each solution to record the conductivity. The conductivity was measured in triplicate for each of the solutions.

Amino acid sequences for entries named in this document (tags omitted). A change or cut given only in a name is not applied to a line headed by its entry.
UniProt P02768: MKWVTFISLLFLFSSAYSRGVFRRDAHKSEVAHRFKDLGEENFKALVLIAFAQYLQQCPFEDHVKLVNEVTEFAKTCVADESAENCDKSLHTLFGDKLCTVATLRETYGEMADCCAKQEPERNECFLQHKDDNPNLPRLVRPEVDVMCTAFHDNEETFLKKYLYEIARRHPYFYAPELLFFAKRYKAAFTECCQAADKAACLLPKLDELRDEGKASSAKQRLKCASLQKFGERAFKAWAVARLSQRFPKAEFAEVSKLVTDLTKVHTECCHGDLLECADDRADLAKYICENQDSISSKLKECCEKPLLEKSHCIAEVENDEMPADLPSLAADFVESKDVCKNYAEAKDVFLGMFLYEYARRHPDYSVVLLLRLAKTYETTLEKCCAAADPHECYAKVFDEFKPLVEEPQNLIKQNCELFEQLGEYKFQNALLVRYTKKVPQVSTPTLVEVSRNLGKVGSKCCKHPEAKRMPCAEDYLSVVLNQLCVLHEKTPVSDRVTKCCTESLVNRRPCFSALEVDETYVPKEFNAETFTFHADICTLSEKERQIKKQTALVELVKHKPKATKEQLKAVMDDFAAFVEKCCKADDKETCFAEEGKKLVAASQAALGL

[2] = biological target: tryptophan residue of HSA (Homo sapiens, UniProt P02768); experiment: Fluorescence measurements of albumin tryptophan residue
HSA = HSA (Homo sapiens, UniProt P02768); experiment: Dynamic light scattering size and zeta potential of HSA systems
[3] = Fluorescence measurements of dye/IL systems with and without human whole blood; conditions: for effect on the dye's fluorescence in the absence of blood: IL scanned 0-240 mM
[4] = 0.1 mg/mL HSA in 10 μM SO3SQ with 160 mM CG 1:1 added

Substance: Choline Glycolate 1:1
- effect on the structure of plasmid DNA (bacterial plasmid DNA): limited structural changes to the DNA
- average conductivity ([1]; 160 mM solution in SO3SQ): 187.0±0.5 μS/cm
- average conductivity ([1]; 160 mM solution in water): 189.4±0.7 μS/cm
- blueshift of tryptophan wavelength maximum ([2]; CG (1:1) added to HSA in water, from 333 nm to 329 nm): 4 nm
- decrease in the intensity of the fluorescence of the tryptophan residue ([2]; condition 1: CG (1:1) added into 0.1 mg/mL HSA in water, no dye): about 10%
- decrease in the intensity of the fluorescence of the tryptophan residues ([2]; condition 2: CG (1:1) added to 0.1 mg/mL HSA already containing 10 μM SO3SQ): 70%
- average charge (zeta potential) (HSA; [4]): −0.30±0.60 mV
- average size (HSA; [4]): 170±40 nm
- average size of the complex (HSA; 0.1 mg/mL HSA in water with 160 mM CG 1:1 added (HSA in water alone 50±30 nm)): 430±150 nm
- average charge (zeta potential) (HSA; 0.1 mg/mL HSA in water with 160 mM CG 1:1 added (HSA in water alone −9.8±0.7 mV)): −0.17±0.17 mV
- size peak of CG 1:1 own complexes in solution (HSA; HSA in water with 160 mM CG 1:1): −600 nm
- effect on the dye's fluorescence in the absence of blood ([3]; 10 μM dye): suppressing the emission
- effect on the dye's fluorescence in the presence of blood ([3]; 10 μM dye, IL scanned 0-240 mM or additive at 160 mM): noticeable increase
- effect on the dye's fluorescence in the absence of blood ([3]; 10 μM dye, listed as CG (1:1)): decrease
- increase of the dye's fluorescence in the presence of blood relative to the sample without any IL ([3]; 160 mM IL, 10 μM SO3SQ): 5 fold
